This note sets out measurements from patent US20230381237A1, “CHIMERIC ANTIGEN RECEPTOR (CAR) T-CELL ADJUVANT THERAPIES” (priority 2022, published 2023).

This data set can be described thus: Phase 1 multiple ascending, repeat-dosing study in healthy volunteers. The note with it: healthy volunteers (Phase 1a).

On to `CC#CC[C@H](C)[C@H](O)/C=C/[C@@H]1[C@H]2c3cccc(CCCC(=O)[O-])c3O[C@H]2C[C@H]1O.[Na+]` [CTO1681, (+)-[1R, 2R, 3aS, 8bS]-2,3,3a,8b-tetrahydro-2-hydroxy-1-[(E)-(3S,4S)-3-hydroxy-4-methyl-1-octen-6-ynyl)-1Hcyclopenta[b]benzofuran-5-butanoic acid, monosodium salt], for which the Safety profile result is “tolerable safety profile”.
